Laboratory results taken from US8623354B2, “Therapeutic compositions comprising hyaluronan and therapeutic antibodies as well as methods of treatment” (Alchemia Oncology Pty Limited, priority 2005, dated 2014).
Where “and” joins values, the source holds several entries; their conditions need not be identical. Identical values can stand only once.

Experiments:
[1] = test system: LIM1215 human colon xenografts; experiment: Tumor volume and classification of tumor progression, cetuximab with or without HA, LIM1215 xenograft model (Example 3); format: in vivo; settings: for Complete Remission: tumor not palpable; for Static Tumor: tumor volume 50-150% of initial; for Partial Remission: tumor volume <50% of initial; for Progressing Tumor: tumor volume >150% of initial
Source text: To evaluate the effect of hyaluronan on the efficacy of therapeutic doses of cetuximab in the treatment of both colon cancer in nude mice as either monotherapy or in combination with irinotecan or its hyaluronan formulation (HyCAMP). Specific consideration of the follow efficacy parameters: • Primary Tumor Volume • Cancer Metastasis • Treatment toxicity in relation to • Body mass • Organ mass • Survival Test and Control Articles
The test articles and dosages which will be used in the study are as follows: • Hyaluronic Acid (800-900 kD modal molecular weight); dosage 150 mg/kg or 26.6 mg/kg • Cetuximab (Erbitux; or ERB); dosage 0.5 mg/kg • Irinotecan Hydrochloride (Camptosar or CPT-11); dosage 50 mg/kg • HyERB (150/0.25) containing 150 mg/kg HA & 0.25 mg/kg cetuximab • HyERB (150/0.5) containing 150 mg/kg HA & 0.5 mg/kg cetuximab • HyCAMP (26.6/50) containing 26.6 mg/kg HA & 50 mg/kg irinotecan Human Colon Carcinoma Cell Line
The human colon carcinoma cell line LIM1215 colon carcinoma cell line was routinely cultured as monolayer in 75 cm^2 culture flasks in RPMI1640 media supplemented with 5% v/v fetal calf serum, 10 μg/ml bovine insulin, 1 mM hydrocortisone and antibacterial/antimycotic stock. For generation of the primary tumor and injection into mice, cells were grown to 80% confluency, trypsinized in 0.05% trypsin/0.01% w/v EDTA solution, washed twice by centrifugation in a Beckman TJ-6 bench centrifuge at 400 gav for 10 min, and counted using a Coulter counter then resuspended in RPMI 1640 media at 2×10^8 cell/ml. This cell line was chosen due to its CD44 receptor, its responsiveness to irinotecan only or when formulated with HA (HyCAMP) compared with irinotecan chemotherapy in a xenograft model and that cellular proliferation is controlled by TGF-a/EGF-R autocrine loop.
Athymic CBA/WEHI nude female mice, were maintained under specific pathogen-free conditions, with sterilized food and water available ad libitum. Each mouse received one injection containing 1×10^7 cells in 50-100 μl. The cells were injected with a 26-gauge needle into the mammary fat pad directly under the first nipple.
(§1) Treatment with (i) saline, (ii) HA, (iii) cetuximab (ERB), (iv) the formulation comprising HA & cetuximab (HyERB), (v) cetuximab/irinotecan and (vi) HA & cetuximab/HA & irinotecan (HyERB/HyCAMP) was commenced approximately 4-8 weeks after the tumor volume was in the range of 50-100 mm^2. Therapies were delivered by bolus IV on day 1 and 4 for a total of 5-weeks. Administration of irinotecan or HyCAMP was day 1 of a 7-day cycle for a total of 5-weeks. […] Table 4 below provides the dosage components and the mean tumor volume of each treatment group at commencement of treatment.
The mice were randomly distributed into each of six treatment groups (n=8 per group). Individual mice were placed in an injection box and treatment administration was via the tail vein using a 26-gauge needle. To ensure the accuracy of each administered dosage, syringes were weighed before and after injection using an analytical; four decimal place balance.
Individual injections were prepared according to individual mouse masses, with the aim of delivering 50 mg/kg irintoecan (equivalent to human therapeutic dose of 208 mg/m^2; MIMS 1999). Single batches of 10 mg/mL solution were prepared and packaged into single use 100 mL sterile glass vials and undergo standard chemical and microbiology testing. Hyaluronan formulated with irinotecan [HyCAMP(150/50)] was prepared by mixing a portion of the 4 mg/ml irinotecan stock with the hyaluronan solution to a final HA concentration equivalent to 150 mg/kg of mouse mass and 50 mg/kg irinotecan. Hyaluronan formulated with cetuximab [HyERB(150/0.5)] was prepared by mixing a portion of 2 mg/mL cetuximab stock with the HA solution to a final HA concentration of 150 mg/kg of mouse mass and 0.5 mg/kg cetuximab. […]

[2] = test system: mice bearing human colon cancer xenografts; experiment: Survival of mice bearing human colon cancer xenografts (Example 3); format: in vivo; settings: monotherapy, before experimental endpoint day 120
Experimental: FIG. 3 is a graphical representation of % survival of mice bearing human colon cancer xenografts where the mice are treated with hyaluronan formulated with cetuximab (HyERB) (150/0.5) or ERB (0.5). […] The survival data can be considered as a surrogate indicator of an increased therapeutic index.
as §1
The overall animal survival time was calculated as the time in days that the animal lived after the commencement of treatment which will be designated Day 1.

Cetuximab [ERB(0.5)]
Complete Remission ([1]; Day 15, nude mice, IV day 1, 4 x 5 weeks): 0%
Static Tumor ([1]; Day 15): 100%
Partial Remission ([1]; Day 15): 0%
Progressing Tumor ([1]; Day 15): 0%
Complete Remission ([1]; Day 46): 0%
Static Tumor ([1]; Day 46): 100%
Partial Remission ([1]; Day 46): 0%
Progressing Tumor ([1]; Day 46): 0%
Complete Remission ([1]; Day 71): 0%
Static Tumor ([1]; Day 71): 86%
Partial Remission ([1]; Day 71): 0%
Progressing Tumor ([1]; Day 71): 14%
Complete Remission ([1]; Day 92): 0%
Static Tumor ([1]; Day 92): 86%
Partial Remission ([1]; Day 92): 0%
Progressing Tumor ([1]; Day 92): 14%
Complete Remission ([1]; Day 113): 0%
Static Tumor ([1]; Day 113): 86%
Partial Remission ([1]; Day 113): 0%
Progressing Tumor ([1]; Day 113): 14%
Complete Remission ([1]; Day 120): 0%
Static Tumor ([1]; Day 120): 71.4%
Partial Remission ([1]; Day 120): 0%
Progressing Tumor ([1]; Day 120): 28.6%
Tumor response, dose dependence ([1]; cetuximab (0.25) compared with cetuximab (0.5) mg/kg): dose dependant
Day at which tumors reached a 400% increase in tumor volume ([1]; monotherapy, cetuximab 0.25 mg/kg with or without 150 mg/kg HA): 58 days
day on which a mouse was humanely killed because tumor volume was over 1000 mm^3 [2]: 53 days and 85 days
